# Reference: patent US12303474B2, “S-enantiomerically enriched compositions of beta blockers for treating amyotrophic lateral sclerosis” (priority 2013, dated 2025)
# How the values were obtained:
# [1] = test system: G93A SOD1 B6SJL hybrid (G93A) model; details: 30 mg/kg/d;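 for HR survival (FIG. 14): dosing began after ALS onset in G93A SOD1 mice, with survival as the endpoint, defined humanely as the animal failing to regain upright posture within 30 s when placed sideways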;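 for HR survival (FIG. 16): dosing began after ALS onset in G93A SOD1 mice, with survival as the endpoint, defined humanely as the animal failing to regain upright posture within 30 s when placed sideways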
# Procedure: Transgenic mice over-expressing a high copy number (25 copies) of mutated human SOD1 gene with a G93A point mutation, i.e., B6SJL-TgN [SOD1-G93A]1 Gur (G1H-G93A transgenic mice, JR2726; Hemizygote) (Gurney M E, et al., Science, 264, 1772-1775, 1994) (“G93A SOD1 B6SJL hybrid (G93A) model”), were used.
# To study the effect of the test compounds on skeletal muscle atrophy, the skeletal muscle mass were determined at the end of the study.
# The number of all mice in the population is indicated as “n” in at the bottom of FIGS. 21A-21C.
# The number of all mice in the population is indicated as “n” in at the bottom of FIGS. 20D-20F.
# The number of all mice in the population is indicated as “n” in at the bottom of FIGS. 21G-21I.
# [2] = test system: G93A SOD1 B6SJL hybrid (G93A) model; details: 30 mg/kg/day vs. placebo;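 for HR survival (FIG. 14): dosing began after ALS onset in G93A SOD1 mice, with survival as the endpoint, defined humanely as the animal failing to regain upright posture within 30 s when placed sideways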;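 for HR survival (FIG. 16): dosing began after ALS onset in G93A SOD1 mice, with survival as the endpoint, defined humanely as the animal failing to regain upright posture within 30 s when placed sideways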
smiles,measurement,setting,value
Nc1nc2ccc(OC(F)(F)F)cc2s1 [rilutek],BAT (brown adipose tissue),[1]; all mice,53.7 ± 2.9 mg
same,BAT (brown adipose tissue),[1]; female mice,53.7 ± 4.5 mg
same,BAT (brown adipose tissue),[1]; male mice,54.8 ± 3.9 mg
same,HR survival (FIG. 14),[2]; all mice,0.89
same,HR survival (FIG. 16),[2]; female mice,1.08
same,HR survival (FIG. 15),[2]; male mice,0.63

# Read-outs that look alike come from different tables or passages of the source.
